Experimental data: ChEMBL document CHEMBL5241084, “Non-carbohydrate strategies to inhibit lectin proteins with special emphasis on galectins” (Eur J Med Chem, 2021)

Amino acid sequences for entries named in this document (tags omitted).
UniProt P09382, whole entry: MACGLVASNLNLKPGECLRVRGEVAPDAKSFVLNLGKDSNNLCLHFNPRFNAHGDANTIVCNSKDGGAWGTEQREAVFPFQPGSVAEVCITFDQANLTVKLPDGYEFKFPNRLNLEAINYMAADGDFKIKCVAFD

Tests used:
Galectin-1 [1] = target: T1, Galectin-1 (Homo sapiens, UniProt P09382); test: Binding affinity to Gal-1 (unknown origin) by fluorescence spectroscopy
Galectin-1 [2] = target: T1, Galectin-1
Galectin-1 [3] = target: T1, Galectin-1; remark: listed apart in the source

SMILES | Ka (Galectin-1 [1]) | Ke (Galectin-1 [2]) | Ka (Galectin-1 [3]) [M⁻¹ s⁻¹]
O=C(Nc1ccc(O)cc1)c1ccc(-c2nc3cc(Cl)ccc3n2Cc2ccccc2)cc1 | 1.2 10^4/M | 5.76 10^-4M | 
CCOC(=O)C1CCN(Cc2cc(=O)oc3cc(OCc4ccc([N+](=O)[O-])cc4)ccc23)CC1 | 1.3 10^4/M |  | 
Oc1cccc(-n2cc(COc3ccc(-c4nc5cc(Cl)ccc5n4Cc4ccccc4)cc3)nn2)c1 | 9.5 10^3/M | 2.9 mM | 
CC1CN(Cc2cc(=O)oc3cc(OCc4cn(Cc5ccc(Cl)cc5Cl)nn4)ccc23)CC(C)O1 (stereo not drawn) | 3 10^5/M | 6.8 mM | 70.4
